A short description of the test: NCI Yeast Anticancer Drug Screen. Data for the sgs1 strain (AID 173).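 Further: 0% = growth of vehicle-only control cultures.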 As to conditions: S. cerevisiae sgs1 mutant, hits give high values. On the procedure:
Growth inhibition of yeast strains with defined genetic alterations is measured as a screen for potential anti-cancer activity. Selected strains with alterations in DNA damage repair or cell cycle control were exposed to compounds and growth inhibition was measured relative to vehicle treated controls. The strain used in this assay is sgs1

Each structure is given as a SMILES string. Only a part is listed here, and it is no random draw. More than one record can exist for a structure, and the calls need not agree. Activity calls are given as the source filed them. No stated cut-off is given here; in the data, active means growth inhibition above about 70%; inactive means the rest.

`CN(C)P(=O)(N(C)C)n1c(Nc2ccccc2)nnc1-c1ccccc1`: the growth inhibition is, setting by setting: (at 1.2 µM) inactive: -56%; (at 3.7 µM) inactive: -38%; (at 11.0 µM) inactive: -17%; (at 33.0 µM) active: 91%; (at 100.0 µM) inactive: -48%.

Consider `COc1cccc(C[N+](C)(CCCl)CCCl)c1[N+](=O)[O-]`, for which the growth inhibition was inactive: 21% (at 1.2 µM); inactive: 23% (at 3.7 µM); inactive: 33% (at 11.0 µM); inactive: 51% (at 33.0 µM); active: 74% (at 100.0 µM).

On to `CC(C)c1nc(Nc2ccccc2)n(P(=O)(N(C)C)N(C)C)n1`, for which the growth inhibition reads like this: (at 1.2 µM) inactive: -1%; (at 3.7 µM) inactive: 0%; (at 11.0 µM) inactive: 12%; (at 33.0 µM) inactive: 59%; (at 100.0 µM) active: 93%.

For `FC1(F)SC2C(C1(F)F)C1(Cl)C(Cl)=C(Cl)C2(Cl)C1(Cl)Cl` (stereo not given), the growth inhibition was inactive: 49% (at 1.2 µM); active: 99% (at 3.7 µM); active: 99% (at 11.0 µM); active: 99% (at 33.0 µM); active: 98% (at 100.0 µM).

For the compound `N#Cc1cc([N+](=O)[O-])cc([N+](=O)[O-])c1N`, the growth inhibition by setting is: (at 1.2 µM) inactive: 7%; (at 3.7 µM) inactive: 10%; (at 11.0 µM) inactive: 16%; (at 33.0 µM) inactive: 30%; (at 100.0 µM) inactive: 46%.

For the compound `O=C1OC(C(Cl)(Cl)Cl)Sc2ccccc21` (stereo not given), the growth inhibition was inactive: -1% (at 1.2 µM); inactive: 3% (at 3.7 µM); inactive: 10% (at 11.0 µM); inactive: 40% (at 33.0 µM); active: 73% (at 100.0 µM).

Regarding `O=[N+]([O-])c1cc([N+](=O)[O-])c2nsnc2c1`, the growth inhibition is, setting by setting: (at 1.2 µM) inactive: 28%; (at 3.7 µM) inactive: 41%; (at 11.0 µM) active: 99%; (at 33.0 µM) active: 99%; (at 100.0 µM) active: 99%.

For `NC(Cc1cnc[nH]1)C(=O)O` (stereo not given), the growth inhibition (at 1.2 µM) was inactive: -3%; the growth inhibition (at 3.7 µM) was inactive: 27%; the growth inhibition (at 11.0 µM) was active: 96%; the growth inhibition (at 33.0 µM) was active: 98%; the growth inhibition (at 100.0 µM) is active: 99%.

Values taken from PubChem BioAssay (NCI).
